Only some compounds are listed: those with a hit (about 1.3% of all), similar ones and a draw of the others.
E-selectin induc – E-selectin induction on HUVECs; AID 686992; actives 0.37% (n = 260,000); HUVEC E-selectin immunofluorescence imaging; normalized: neutral wells 0, TNF-alpha wells 100; activation, % at 7.58 µM;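 active = mean E-selectin-positive cell signal at least 10% of the positive control, reached in at least 60% of replicates, without over 20% cell loss; inconclusive = no rule given, readout overlaps actives, possibly toxicity-flagged; inactive = the rest, including those meeting only one limit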
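Test system – human umbilical vein endothelial cells (HUVEC), E-selectin induction · Input – 3,000 HUVEC seeded per well · Buffer or medium – EGM-2, gelatin · Compound dosing – single-point compound dose · Detection – immunofluorescence imaging · Measure – percent E-selectin-positive cells · Controls – TNF-alpha high, DMSO low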
ARNT TACC3 PPI – disrupts binding between human ARNT and TACC3; Q9Y6A5; AlphaScreen His-ARNT PAS-B/GST-TACC3 binding, luminescence; TACC3 fragment carries E629A point mutation; inhibition, % at 9.99 µM; actives 0.66% (n = 390,000); AID 623870;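 active = mean inhibition of replicates at least 50% and at least half of replicates each reaching 50%; inconclusive = half or more replicates reach 50% but mean below 50%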;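 note: 0% = complete ARNT plus TACC3 wells and 100% = ARNT alone without TACC3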
S100A4 inh HTS – inhibitors of human S100A4 binding to myosin IIA peptide; S100A4/TAMRA-MyoIIA peptide fluorescence polarization; inhibition, % at 10.7 µM; actives 0.14% (n = 360,000);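 active = mean inhibition of at least 70% across replicates, with every replicate also reaching that level; inconclusive = mean inhibition reaches 70% but some replicates fall short; inactive = mean inhibition below 70%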
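Material: S100A4 monomer (human). Medium: Calcium-containing HEPES buffer, pH 7.2. Probe or stimulus: labelled myosin peptide probe, 5 nM. Compound dosing: one concentration per compound. Timing: polarization read 5 min after assay mix addition, stable 5–60 min. Benchmarks: DMSO as neutral control, TFP as positive control.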
Yeast UUG start – modulators of yeast start codon fidelity, primary screen, whole organism, S. cerevisiae, single point, plate reader; activity score, % at 18.7 µM; actives 0.13% (n = 350,000); S. cerevisiae UUG-firefly luciferase reporter, luminescence/redox ratio;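 active = replicate mean at a twofold rise or more, about +100% in these data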;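 also: firefly luciferase made from a UUG start codon reports start codon fidelity; reporter light over untreated wells divided by growth signal over untreated wells; some hits fall short of that in this replicate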
ERAP1 inh – blocks human ERAP1 aminopeptidase activity; recombinant ERAP1, Leu-AMC fluorescence, 60 min; inhibition, % at 10.7 µM; actives 0.15% (n = 340,000); AID 652197;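 active = mean replicate inhibition of at least 30%, or all replicates individually reaching that 30% level; inactive = mean below 30% and not every replicate reaching it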;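 note: 0% = neutral control wells and 100% = L-leucinethiol positive control wells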
MLL AF4-AF9 inh – blocks AF4 peptide binding to human AF9 | P42568 | AlphaScreen, biotin-AF4 peptide binding to FLAG-AF9 | inhibition, % at 10 µM | actives 0.47% (n = 350,000);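 active = every replicate reaching a set inhibition limit, whatever the replicate mean, cut at about 25% in these data; inconclusive = mean inhibition reaches that limit but some replicates miss it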;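 note: 0% = plate neutral control median and 100% = total signal loss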
ARNT Alpha ctr-1 – interferes with AlphaScreen signal, flagging false ARNT-TACC3 hits. shares compounds with ARNT TACC3 PPI. His-ARNT PASB-GST AlphaScreen artifact counter-screen, luminescence. actives 50% (n = 1,200). AC50, µM (titrated, usually from 68 µM), for inactives: at the highest dose activity change, negative = signal decrease. AID 651705;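 active = every separate test run was called active for a drop in luminescence, with AC50 within twice the top valid dose, actives reach about 71 µM in these data; inconclusive = the separate test runs disagree in their calls; inactive = all runs inactive, including signal change in the wrong direction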
ARNT Alpha ctr-2 – counter-screen for ARNT-TACC3 inhibitors: AlphaScreen artifacts; shares compounds with ARNT TACC3 PPI; Dual-tagged His-ARNT PASB-GST AlphaScreen artifact counter-screen; AC50, µM; actives 70% (n = 45); AID 720564;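 active = luminescence drop, with half-maximal potency fitted within twice the sample's top valid dose, cut at about 70 µM in these data; inactive = the rest, including signal moving the wrong way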
Starred values were filed as active, the others as inactive; ? = inconclusive; . = no result given.

SMILES	E-selectin induc	ARNT TACC3 PPI	S100A4 inh HTS	Yeast UUG start	ERAP1 inh	MLL AF4-AF9 inh	ARNT Alpha ctr-1	others
O=C(CN1C(=O)c2ccccc2C1=O)OCC(=O)c1ccc(F)cc1	-1	-3	-3	1	2	0	.
O=C(CN1CC(=O)Oc2ccccc21)OCC(=O)c1ccccc1	.	54*	.	5	.	.	8.3µM*
O=C(N[C@H]1CC[C@H](CCn2cc(C3CC3)nn2)O[C@@H]1CO)c1cccnc1	1	-23	4	-3	-1	0	.
O=C(N[C@@H]1CC[C@@H](CCn2cc(-c3ccccn3)nn2)O[C@@H]1CO)c1cccnc1	0	81*	-17	-30	-3	2	44µM*
O=C(N[C@@H]1CC[C@@H](CCn2cc(C3CCCC3)nn2)O[C@H]1CO)c1cccnc1	0	.	-10	.	2	0	.
O=C(N[C@@H]1CC[C@H](CCn2cc(-c3ccccn3)nn2)O[C@H]1CO)c1cccnc1	0	84*	-11	-11	-5	0	44µM*
O=C(N[C@@H]1CC[C@@H](CCn2cc(-c3ccccn3)nn2)O[C@H]1CO)c1cccnc1	1	71*	0	-26	-6	-7	37µM*
CO[C@H]1CN(C)C(=O)c2ccc(NC(=O)C3CCCC3)cc2OC[C@@H](C)N(C)C[C@H]1C	0	3	15	-6	-3	-2	.
CCCC#Cc1cnc2c(c1)C(=O)N([C@H](C)CO)C[C@H](C)[C@@H](CN(C)C(=O)C1CCCCC1)O2	1	.	.	0	.	.	.
O=C(N/N=C/c1cc(Br)ccc1OC(=O)c1ccc(Br)cc1)c1ccncc1	0	61*	10	-17	2	11	56µM*
O=C(NN=Cc1c(O)ccc2ccccc12)c1ccncc1	3	56*	10	.	1	6	49µM*
O=C(N/N=C/c1ccc(O)c([N+](=O)[O-])c1)c1ccncc1	1	27	-1	.	1	-12	.
O=C(N/N=C/c1cc([N+](=O)[O-])ccc1O)c1ccncc1	2	57*	9	.	.	?	12µM*
O=C(Nc1cc(F)ccc1F)N1CCCCN2[C@H](C1)[C@@H](c1ccc(-c3ccccc3)cc1)[C@@H]2CO	0	9	16	-1	1	-5	.
C[C@@H]1CN([C@@H](C)CO)C(=O)CCCn2cc(nn2)CO[C@@H]1CN(C)C(=O)OCc1ccccc1	2	.	.	.	.	.	.
O=C(C[C@H]1C=C[C@H](NC(=O)c2ccc(F)cc2)[C@@H](CO)O1)NCCc1ccccc1	0	-10	9	-15	-1	-1	.
OCCN(Cc1cccnc1)Cc1ccccn1	0	70*	2	-24	3	-1	15µM*
CNC(=S)N(Cc1ccccc1)Cc1cccnc1	.	-2	-19	-14	-2	-2	.
COc1ccc(NC(=O)N(C)C[C@@H]2Oc3c(NS(=O)(=O)c4ccc(F)cc4)cccc3C(=O)N([C@@H](C)CO)C[C@H]2C)cc1	0	11	.	-2	.	.	.
C=CCSc1nnc(-c2cccc3ccccc23)o1	0	57*	-2	-5	0	0	34µM*
C#CCSc1nnc(-c2cccc3ccccc23)o1	.	36	.	.	.	.	.
Cc1cc(C)cc(NC(=O)CSc2ccc(-c3ccccn3)nn2)c1	0	11	1	-22	3	-2	.
COc1ccccc1CNC(=O)CSc1ccc(-c2ccccn2)nn1	0	73*	0	.	.	-13	59µM*
O=C(CSc1ccc(-c2ccccn2)nn1)N1CCCc2ccccc21	8	59*	-22	-12	-4	-4	30µM*
O=C(CSc1ccc(-c2ccccn2)nn1)Nc1cccc(F)c1	0	74*	-3	-27	1	0	12µM*

Ordered by heavy-atom count (highest first): some entries from above
SMILES	E-selectin induc	ARNT TACC3 PPI	S100A4 inh HTS	Yeast UUG start	ERAP1 inh	MLL AF4-AF9 inh	ARNT Alpha ctr-1	others
COc1ccc(NC(=O)N(C)C[C@@H]2Oc3c(NS(=O)(=O)c4ccc(F)cc4)cccc3C(=O)N([C@@H](C)CO)C[C@H]2C)cc1	0	11	.	-2	.	.	.
CO[C@H]1CN(C)C(=O)c2ccc(NC(=O)C3CCCC3)cc2OC[C@@H](C)N(C)C[C@H]1C	0	3	15	-6	-3	-2	.
O=C(N/N=C/c1ccc(O)c([N+](=O)[O-])c1)c1ccncc1	1	27	-1	.	1	-12	.
CNC(=S)N(Cc1ccccc1)Cc1cccnc1	.	-2	-19	-14	-2	-2	.
OCCN(Cc1cccnc1)Cc1ccccn1	0	70*	2	-24	3	-1	15µM*

Additional structures.
SMILES	E-selectin induc	ARNT TACC3 PPI	S100A4 inh HTS	Yeast UUG start	ERAP1 inh	MLL AF4-AF9 inh	ARNT Alpha ctr-1	others
O=C(CSc1ccc(-c2ccccn2)nn1)Nc1nccs1	.	61*	-1	.	-4	2	60µM*	ARNT Alpha ctr-2=4.7*
O=C(CSc1ccc(-c2cccnc2)nn1)N1CCCc2ccccc21	.	.	4	.	6	-6	.
Cc1csc(NC(=O)CSc2ccc(-c3ccccn3)nn2)n1	0	61*	-5	-30	0	2	16µM*
O=C(CSc1nnc(-c2ccccn2)o1)Nc1ccccc1Cl	0	75*	1	-19	-2	-1	-27%
Cc1ccccc1NC(=O)CSc1ccc(-c2ccccn2)nn1	0	61*	2	-17	0	0	35µM*
COC(=O)c1ccc(NC(=O)CSc2ccc(-c3ccccn3)nn2)cc1	0	60*	-4	-35	1	-2	-37%
Cc1noc(C)c1NC(=O)Nc1ccc2c(c1)CC(=O)N([C@H](C)CO)C[C@H](C)[C@@H](CN(C)Cc1ccc(Oc3ccccc3)cc1)O2	-11	13	.	-3	.	.	.
CCC(=O)Nc1ccc2c(c1)OC[C@@H](C)N(C(=O)NC(C)C)C[C@H](C)[C@H](OC)CN(C)C2=O	0	2	5	-4	0	-1	.
O=C(C[C@@H]1C=C[C@H](NC(=O)C2CC2)[C@H](CO)O1)NCc1ccccc1Cl	0	1	-9	-3	-1	0	.
O=C(N/N=C1/CCS(=O)(=O)c2ccc(F)cc21)c1ccccn1	1	52*	12	.	4	-2	-5%
Cc1nnc(NC(=O)C2CCN(S(=O)(=O)c3cc([N+](=O)[O-])ccc3Cl)CC2)o1	0	52*	-1	-30	-2	2	-20%
Cc1nnc(NC(=O)c2ccc(S(=O)(=O)N3CCCCC3)cc2)o1	.	.	.	.	.	.	.	ARNT Alpha ctr-2=>136
CC1CCCN(S(=O)(=O)c2ccc(C(=O)Nc3nnc(C4CC4)o3)cc2)C1 (stereo not drawn)	0	51*	17	-23	-2	3	65µM*

Source: PubChem BioAssay (Broad Institute)
